Assays:
LC3B = LC3B accumulation in SW620 cells; assay type: cell-based, human; settings: 1 μM, 72 hours
Procedure: Western blotting. Protein lysates were separated by SDS-PAGE and then transferred to a nitrocellulose membrane. After blocking, membranes were incubated overnight with antibodies to LC3 (rabbit Monoclonal antibody, Cell Signaling). After washing with TBS-T (TBS with 0.05 Tween-20), membranes were incubated with the HRP (Horseradish peroxidase)-linked secondary antibody (IgG donkey anti-rabbit IgG (NA934) (GE LifeSciences, Marlborough, MA). Blots were developed using ECL prime (GE LifeSciences, RPN2232) and digitally captured on an LAS4000 (GE LifeSciences). After stripping, the membrane was re-probed with a mouse monoclonal antibody to GAPDH (Santa Cruz) followed by a secondary IgG sheep anti-mouse IgG (NA931). Western blot bands were quantified using Fiji (Schindelin et al., 2012).

LC3 = LC3 autophagic puncta imaging in HT-29 cells transduced with fluorescent LC3; settings: 72 hours
[1] = Preliminary tolerability experiments in mice; settings: 30 mg/kg i.p.
HT-29 cells = experiment: Cell cycle analysis by flow cytometry in HT-29 cells; assay type: cell-based, human; settings: 1 μM, 72 hrs
Colo205 tumor = experiment: Colo205 subcutaneous tumor model in nu/nu mice; settings: 15 mg/kg daily i.p.
HT-29 tumor = experiment: HT-29 subcutaneous tumor model in nu/nu mice; assay type: in vivo; settings: 15 mg/kg daily i.p.

SMILES: Cc1ccc(C(=O)Nc2cccc(C(F)(F)F)c2)cc1Nc1nc(-c2cccnc2)nc2nn(C)cc12
- LC3B accumulation in SW620 cells (LC3B): induce LC3B accumulation
- LC3-related autophagy puncta (LC3): increase significantly the average number of LC3-related puncta/cell
- body weight [1]: significant reduction of body weight
- cell cycle distribution (HT-29 cells): Neither compound altered cell cycle distribution
- Colo205 tumor growth (tumor measurements and tumor weight) (Colo205 tumor): reduced significantly Colo205 tumor growth
- growth of HT-29 colorectal carcinoma cells in mice (HT-29 tumor): reduced significantly the growth of HT-29 colorectal carcinoma cells in mice
- average % Ki67+ cells, control vs treated tumors (HT-29 tumor; n=5): control (n=5) is significantly higher
- mean % cleaved caspase-3+ tumor area vs control (HT-29 tumor; n=5): significantly greater
- tumor vasculature (average CD31 fluorescence intensity) (HT-29 tumor; n=5): no measurable effect on the tumor vasculature

Source: US12486270B2, “Receptor tyrosine kinase inhibitors for treatment of protein kinase modulation-responsive disease or disorder” (THE UNITED STATES OF AMERICA, as represented by the …, priority 2019, dated 2025)
